We go through four substances from paper PMC10806771 (Chemical Science, 2023).

One experiment concerns HER2. The settings on record: versus Kadcyla; cited from earlier work.
Experiment [1] deals with SK-BR-3 (HER2-positive) cells. Description: Cell viability assay. Type of experiment: cell-based, human. As to conditions: 72 h; CellTiter-Glo; triplicate. Background: In ATP-based viability assays light output follows the ATP content of the culture.

On to “Enhertu: ADC targeting HER2, Deruxtecan conjugated to Trastuzumab”, for which, in the experiment on HER2, the “Patient survival” value is on record as “improves patient survival significantly compared to its predecessor Kadcyla”.
The IC50 is the concentration at which inhibition is half-maximal. The low end stands for inhibition by little substance, the high end for a need for much substance. As for T-DM1: ADC purchased from Roche, in experiment [1], the midpoint of inhibition, the IC50, lay at 145 nM.
With “Tmab-Vedotin: trastuzumab with maleimide MMAE, conjugation via cysteine, DAR = 3.28”, the IC50 in experiment [1] worked out at 126 nM.
In experiment [1], “Tmab-VC-PAB-MMAE: trastuzumab ADC made by site-specific Fc-III-L6Orn conjugation, DAR = 1.91” gave an IC50 of 258 nM.
